Results taken from PubChem BioAssay AID602396 (The Scripps Research Institute Molecular Screening Center, 2012).
The list shows a part of the results, in another mix than the full data. Some structures show a salt or complex split into parts, the way the source records it. Activity calls are given as the source filed them.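 Rule for the calls: active = inhibition above the mean inhibition of all tested compounds plus 3 SD (cut at about 73% in these data); inactive = the rest.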

Chains of the proteins cited; added tags and fusions are not shown.
UniProt O00482, whole entry: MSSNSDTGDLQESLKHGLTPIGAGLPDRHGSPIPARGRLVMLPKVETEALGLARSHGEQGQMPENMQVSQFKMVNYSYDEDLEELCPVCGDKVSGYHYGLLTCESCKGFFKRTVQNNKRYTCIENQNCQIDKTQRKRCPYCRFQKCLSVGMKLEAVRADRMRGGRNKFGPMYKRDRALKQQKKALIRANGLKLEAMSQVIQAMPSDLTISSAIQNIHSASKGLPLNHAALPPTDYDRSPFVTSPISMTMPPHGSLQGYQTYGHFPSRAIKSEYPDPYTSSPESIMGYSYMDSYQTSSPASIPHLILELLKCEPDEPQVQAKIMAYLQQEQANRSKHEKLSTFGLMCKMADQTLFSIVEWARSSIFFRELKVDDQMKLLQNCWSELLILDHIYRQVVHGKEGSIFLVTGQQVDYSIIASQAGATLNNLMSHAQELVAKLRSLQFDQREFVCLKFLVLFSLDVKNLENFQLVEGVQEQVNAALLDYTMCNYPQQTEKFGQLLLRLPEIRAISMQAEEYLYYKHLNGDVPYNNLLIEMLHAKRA

Target: Nuclear receptor subfamily 5 group A member 2 (Homo sapiens) (UniProt O00482)
Test: LRH-1 (NR5A2) inverse agonists, primary screen, cell-based, luminescence, HEK293T, StAR-luciferase reporter (AID 602396);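 note: 0% = DMSO wells and 100% = reporter-only cells lacking LRH-1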
Conditions: LRH-1 transfected, 24 h, at 3.6 µM, stronger effect = higher value

Compound	inhibition
CCN(CC)CCCNc1ccccc1[N+](=O)[O-].O=[N+]([O-])c1cc([N+](=O)[O-])c(O)c([N+](=O)[O-])c1	inactive: -13.8%
COc1ccc2c(c1O)-c1c(O)c(OC)cc3c1[C@H](C2)[N+](C)(C)CC3.O=[N+]([O-])c1cc([N+](=O)[O-])c([O-])c([N+](=O)[O-])c1[O-]	inactive: -13%
O=C(OC1CN2CCC1CC2)c1ccc([N+](=O)[O-])cc1 (stereo unspecified)	inactive: -8.71%
O=C(OCCN1CCN(CCOCc2ccccc2)CC1)C(O)(c1ccccc1)c1ccccc1	inactive: 20.9%
CP(=O)(Nc1ccccc1F)Oc1ccccc1 (stereo unspecified)	inactive: -8.74%
CC(C)c1ccc(OP(C)(=O)Nc2ccc(SC(F)(F)F)cc2)cc1 (stereo unspecified)	inactive: 17.6%
O=[N+]([O-])c1cc([N+](=O)[O-])c(Nc2ccc(Cl)cc2)c([N+](=O)[O-])c1	inactive: 37.8%
Cc1ccccc1NP(C)(=O)Nc1ccccc1C	inactive: -13.4%
O=[N+]([O-])c1cc([N+](=O)[O-])c(C(F)(F)F)c([N+](=O)[O-])c1O	inactive: 9.6%
CP(=O)(Nc1ccc2c(c1)OCCO2)Oc1ccccc1 (stereo unspecified)	inactive: -7.98%
CCOP(C)(=S)SCC(=O)NC(C)(CC)C(=O)O (stereo unspecified)	inactive: -1.66%
CP(=O)(Nc1ccc(SC(F)(F)F)cc1)Oc1ccc(F)cc1 (stereo unspecified)	inactive: 7.28%
Cc1c(C(c2ccc3c(c2)OCO3)c2c(C)n(C)n(-c3ccccc3)c2=O)c(=O)n(-c2ccccc2)n1C.O=[N+]([O-])c1cc([N+](=O)[O-])c(O)c([N+](=O)[O-])c1	inactive: 1.72%
O=[N+]([O-])c1ccc(OP2(=O)COCCO2)cc1 (stereo unspecified)	inactive: 9.35%
Cc1cc(-c2cccc3ccccc23)c(C)cn1.O=[N+]([O-])c1cc([N+](=O)[O-])c(O)c([N+](=O)[O-])c1	inactive: -3.41%
O=[N+]([O-])c1cc([N+](=O)[O-])c(NCC2CCS(=O)(=O)C2)c([N+](=O)[O-])c1 (stereo unspecified)	inactive: -8.9%
CN(C)CCOC(=O)C(O)(c1ccccc1)C1CCCCC1 (stereo unspecified)	inactive: -9.2%
COc1ccc(NP(C)(=O)Oc2ccccc2OC)cc1 (stereo unspecified)	inactive: 4.53%
COc1ccc(OP(C)(=O)Nc2cccc(Br)c2)cc1 (stereo unspecified)	inactive: 21.5%
CCOC(=O)c1ccc(NP(C)(=O)Oc2ccc(Cl)cc2)cc1 (stereo unspecified)	inactive: 4.58%
CP(=O)(OC12CC3CC(CC(C3)C1)C2)OC12CC3CC(CC(C3)C1)C2	inactive: 1.48%
CN(C)C(=O)c1c([N+](=O)[O-])cc([N+](=O)[O-])cc1[N+](=O)[O-]	inactive: 16.7%
COc1ccccc1OP(C)(=O)Nc1ccccc1Br (stereo unspecified)	inactive: -4.76%

Compound	inhibition
CC(C)(C)c1ccc(OP(C)(=O)O)cc1	inactive: 2.84%
CP(=O)(Nc1ccc(Cl)cc1)Oc1ccc(F)cc1 (stereo unspecified)	inactive: 0.63%
COc1ccccc1OP(C)(=O)Nc1c(C)n(C)n(-c2ccccc2)c1=O (stereo unspecified)	inactive: -4.34%
O=C(OCCCN1CCCC1)C(O)(c1ccccc1)C1CCCCC1 (stereo unspecified)	inactive: 9.72%
CP(=O)(Oc1ccccc1)N1CCOC1=O (stereo unspecified)	inactive: 6.66%
CCc1ccc(OP(C)(=O)Nc2cccnc2)cc1 (stereo unspecified)	inactive: -3.4%
CCN(CC)CC(O)COC(=O)C(O)(c1ccccc1)C1CCCCC1 (stereo unspecified)	inactive: 4.62%
COc1ccc(OP(C)(=O)Nc2ccc(Br)cc2)cc1 (stereo unspecified)	inactive: -6.9%
CP(=O)(Nc1ccccn1)Oc1ccccc1 (stereo unspecified)	inactive: 17%
COc1ccccc1OP(C)(=O)Nc1ccc(C)cc1C (stereo unspecified)	inactive: 23.2%
CCc1ccc(OP(C)(=O)O)cc1	inactive: 9.69%
Cc1c(NP(C)(=O)Oc2ccc(C(C)C)cc2)c(=O)n(-c2ccccc2)n1C (stereo unspecified)	inactive: 5.32%
O=[N+]([O-])c1cc([N+](=O)[O-])c(Nc2ccccn2)c([N+](=O)[O-])c1	inactive: 3.31%
COc1ccc(OP(C)(=O)Nc2ccccn2)cc1 (stereo unspecified)	inactive: -2.52%
CN(C)CCOC(=O)C(O)(c1ccccc1)C1CCCC1 (stereo unspecified)	inactive: -21.3%
COc1ccccc1OP(C)(=O)Nc1ccc(Br)cc1 (stereo unspecified)	inactive: 11.3%
CP(=O)(Nc1ccc(Cl)cc1Cl)Oc1ccccc1 (stereo unspecified)	inactive: -15.9%
CCCCCCCCCCCCCCCC1C[N+](C)(C)CCOP(C)(=O)O1 (stereo unspecified)	inactive: -8.28%
CP(=O)(OCCOc1ccccc1)OCCOc1ccccc1	inactive: 8.43%
COc1ccccc1OP(C)(=O)Nc1ccc(C)c(C)c1 (stereo unspecified)	inactive: 12.7%
COc1ccc(OP(C)(=O)Nc2ccccc2Br)cc1 (stereo unspecified)	inactive: -2.83%
O=C1C(O)=C([N+](=O)[O-])C(=O)C(O)=C1[N+](=O)[O-]	inactive: -8.68%
Cc1cc(C)cc(OP(C)(=O)Nc2cccc(C(F)(F)F)c2)c1 (stereo unspecified)	inactive: 2.58%
